{"sequences": {"note": "Sequences of proteins named here, by UniProt entry; tags and fusion partners are left off. Residues count along the entry.", "UniProt P06756, 31-1048, chain 1 of 2": "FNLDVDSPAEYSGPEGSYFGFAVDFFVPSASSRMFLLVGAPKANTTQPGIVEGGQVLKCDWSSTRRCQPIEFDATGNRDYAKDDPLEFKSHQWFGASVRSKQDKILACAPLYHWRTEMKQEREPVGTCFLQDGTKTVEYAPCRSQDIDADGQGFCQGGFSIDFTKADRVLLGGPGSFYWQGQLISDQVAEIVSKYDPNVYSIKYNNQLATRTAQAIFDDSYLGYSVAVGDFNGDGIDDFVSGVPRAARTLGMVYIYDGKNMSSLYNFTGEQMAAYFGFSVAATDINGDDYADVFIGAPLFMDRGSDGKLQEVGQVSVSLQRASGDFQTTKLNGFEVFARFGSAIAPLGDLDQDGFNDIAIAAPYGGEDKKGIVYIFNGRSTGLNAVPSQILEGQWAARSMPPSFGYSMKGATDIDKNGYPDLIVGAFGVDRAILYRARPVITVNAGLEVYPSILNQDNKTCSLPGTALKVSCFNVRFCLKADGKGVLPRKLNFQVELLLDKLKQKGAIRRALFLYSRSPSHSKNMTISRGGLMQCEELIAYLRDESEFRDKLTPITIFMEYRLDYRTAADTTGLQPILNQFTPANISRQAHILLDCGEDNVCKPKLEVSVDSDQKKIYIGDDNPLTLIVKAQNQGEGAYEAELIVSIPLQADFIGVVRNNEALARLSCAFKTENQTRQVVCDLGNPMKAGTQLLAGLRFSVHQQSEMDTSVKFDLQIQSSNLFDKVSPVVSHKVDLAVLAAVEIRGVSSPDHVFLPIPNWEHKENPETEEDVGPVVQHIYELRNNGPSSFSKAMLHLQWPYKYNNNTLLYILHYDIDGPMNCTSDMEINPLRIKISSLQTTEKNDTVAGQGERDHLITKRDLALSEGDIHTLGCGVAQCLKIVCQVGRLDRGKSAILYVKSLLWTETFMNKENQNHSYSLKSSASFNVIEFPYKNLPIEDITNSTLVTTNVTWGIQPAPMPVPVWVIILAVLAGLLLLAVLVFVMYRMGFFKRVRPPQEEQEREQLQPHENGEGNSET", "Vitronectin receptor, UniProt P05106, 27-788, chain 2 of 2": "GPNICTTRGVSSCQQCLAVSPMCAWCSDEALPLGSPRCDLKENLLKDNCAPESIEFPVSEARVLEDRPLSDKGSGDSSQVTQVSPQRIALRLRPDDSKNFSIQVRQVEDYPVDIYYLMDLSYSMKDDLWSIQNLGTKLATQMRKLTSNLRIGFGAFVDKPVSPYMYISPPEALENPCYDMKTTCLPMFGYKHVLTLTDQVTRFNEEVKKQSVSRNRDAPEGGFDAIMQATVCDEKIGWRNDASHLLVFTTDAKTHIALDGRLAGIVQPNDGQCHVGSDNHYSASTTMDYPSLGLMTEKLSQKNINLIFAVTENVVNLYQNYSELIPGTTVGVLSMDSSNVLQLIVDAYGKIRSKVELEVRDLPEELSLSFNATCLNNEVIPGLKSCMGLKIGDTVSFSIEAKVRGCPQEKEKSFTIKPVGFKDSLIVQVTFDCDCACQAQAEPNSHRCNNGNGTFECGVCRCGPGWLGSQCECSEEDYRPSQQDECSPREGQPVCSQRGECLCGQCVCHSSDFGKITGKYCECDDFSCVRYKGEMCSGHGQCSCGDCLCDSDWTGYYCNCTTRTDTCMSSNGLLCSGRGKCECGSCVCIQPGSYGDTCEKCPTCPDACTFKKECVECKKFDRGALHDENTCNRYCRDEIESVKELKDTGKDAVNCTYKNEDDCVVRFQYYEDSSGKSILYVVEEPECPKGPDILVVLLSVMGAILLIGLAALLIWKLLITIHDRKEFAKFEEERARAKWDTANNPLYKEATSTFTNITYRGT", "UniProt P08648, 42-1049, chain 1 of 2": "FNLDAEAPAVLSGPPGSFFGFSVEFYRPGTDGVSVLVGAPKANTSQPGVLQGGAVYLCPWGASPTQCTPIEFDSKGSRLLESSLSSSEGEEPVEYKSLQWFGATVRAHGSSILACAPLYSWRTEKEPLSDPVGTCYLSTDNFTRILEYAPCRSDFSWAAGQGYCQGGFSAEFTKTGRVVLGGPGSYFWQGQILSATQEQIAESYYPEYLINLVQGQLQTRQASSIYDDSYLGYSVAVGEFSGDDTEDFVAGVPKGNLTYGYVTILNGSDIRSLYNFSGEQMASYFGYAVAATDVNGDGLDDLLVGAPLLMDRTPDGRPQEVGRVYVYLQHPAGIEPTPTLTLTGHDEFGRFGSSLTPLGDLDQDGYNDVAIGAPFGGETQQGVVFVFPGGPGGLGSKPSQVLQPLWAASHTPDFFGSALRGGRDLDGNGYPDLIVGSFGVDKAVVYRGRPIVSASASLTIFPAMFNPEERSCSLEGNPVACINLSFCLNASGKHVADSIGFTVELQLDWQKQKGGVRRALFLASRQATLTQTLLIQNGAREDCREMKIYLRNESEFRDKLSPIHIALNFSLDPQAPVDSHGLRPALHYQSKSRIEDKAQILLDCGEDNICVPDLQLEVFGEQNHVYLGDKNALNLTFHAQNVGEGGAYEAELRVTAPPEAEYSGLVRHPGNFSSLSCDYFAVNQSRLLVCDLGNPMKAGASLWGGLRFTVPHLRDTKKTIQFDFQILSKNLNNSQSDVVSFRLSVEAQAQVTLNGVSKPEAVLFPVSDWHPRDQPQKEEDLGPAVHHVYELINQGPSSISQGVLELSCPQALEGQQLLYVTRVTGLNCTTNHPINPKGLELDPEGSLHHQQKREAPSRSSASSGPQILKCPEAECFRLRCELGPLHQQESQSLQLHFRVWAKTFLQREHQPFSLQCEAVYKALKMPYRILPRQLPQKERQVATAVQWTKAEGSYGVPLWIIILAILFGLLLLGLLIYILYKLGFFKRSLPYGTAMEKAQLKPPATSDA"}, "source": "patent US6521594", "about": "(LA JOLLA CANCER RESEARCH FOUNDATION, dated 2003)", "binders": {"B1": {"name": "Ac(dPen)NPRGD(O-Me-Tyr)RC-NH2 (peptide)", "peptide": "XNPRGDXRC", "modifications": "N-terminal acetyl; D-Pen at 1; O-Me-Tyr at 7; C-terminal amide", "notes": "also called 10X; Ac(dPen)NPRGDY-OMeRCNH2"}, "B2": {"name": "Ac-CNPRGD(Y-OMe)OC-NH2 (peptide)", "peptide": "CNPRGDXXC", "modifications": "N-terminal acetyl; O-Me-Tyr at 7; 'O' at 8 as printed (letter not explained, presumably Orn); C-terminal amide", "notes": "also called 11P"}, "B3": {"name": "R9GDS (peptide)", "peptide": "RRRRRRRRRGDS", "notes": "R9 read as nine Arg; this reading is not confirmed by the text"}}, "key": {"Vitronectin receptor [1]": {"molecular_target": "T1, Vitronectin receptor (human, UniProt P06756 31-1048; P05106 27-788)", "T1 construct": "mature; also called Vn-R; VnR", "experiment": "competitive ELISA Vn/VnR"}, "[2]": {"molecular_target": "T2, Platelet glycoprotein IIb/IIIa (human, UniProt P08514 32-1039; P05106 27-788)", "T2 construct": "mature; on human platelets in the aggregation assays (functional rows); also called GP IIb/IIIa; GPIIbIIIa", "experiment": "competitive ELISA Fg/IIbIIIa"}, "[3]": {"molecular_target": "T2, Platelet glycoprotein IIb/IIIa", "experiment": "competitive ELISA vWF/IIbIIIa"}, "Vitronectin receptor [4]": {"molecular_target": "T1, Vitronectin receptor", "experiment": "competition, ELISA or liposome assay, vitronectin coated"}, "[5]": {"molecular_target": "T2, Platelet glycoprotein IIb/IIIa", "experiment": "competition, ELISA or liposome assay"}, "Fibronectin receptor": {"molecular_target": "T3, Fibronectin receptor (human, UniProt P08648 42-1049; P05556 21-798)", "T3 construct": "mature; Purified on a 110 kd fibronectin fragment column; also called Fn-R; FnR", "experiment": "competitive ELISA, fibronectin coated"}, "[6]": {"molecular_target": "T2, Platelet glycoprotein IIb/IIIa", "experiment": "cell-based or functional assay"}, "[7]": {"molecular_target": "T2, Platelet glycoprotein IIb/IIIa", "experiment": "cell-based or functional assay", "remark": "listed apart in the source"}}, "data": [{"binder": "CNPRGDXRC (N-terminal acetyl; O-Me-Tyr at 7; C-terminal amide, also called 8X; 8×)", "note": "[AcCNPRGD(O-Me-Tyr)RC-NH2]", "values": [{"measurement": "IC50", "setting": "Vitronectin receptor [1]", "result": 4700, "unit": "nM"}, {"measurement": "IC50", "setting": "[2]", "result": 8.7, "unit": "nM"}, {"measurement": "IC50", "setting": "[3]", "result": 14.8, "unit": "nM"}, {"measurement": "IC50", "setting": "Vitronectin receptor [4]", "result": 4700, "unit": "nM"}]}, {"binder": "RXGHRGDXRCR (Pmc at 2; p-amino-Phe at 8)", "note": "[R(Pmc)GHRGD(p-amino-Phe)RCR]", "values": [{"measurement": "IC50", "setting": "[5]", "result": 340, "unit": "nM"}]}, {"binder": "GRGDSPDG (also called 2H)", "values": [{"measurement": "IC50", "setting": "[5]", "result": 250, "unit": "nM"}]}, {"binder": "YRGDSPDG", "values": [{"measurement": "IC50", "setting": "Fibronectin receptor", "result": 1100, "unit": "nM"}]}, {"binder": "RXGHRGDXRCR (Pmc at 2; Hpa at 8)", "note": "[R(Pmc)GHRGD(Hpa)RCR]", "values": [{"measurement": "IC50", "setting": "Vitronectin receptor [4]", "result": 4200, "unit": "nM"}]}, {"binder": "RXGHRGDXRCR (Pen at 2; Cha at 8)", "note": "[R(Pen)GHRGD(Cha)RCR]", "values": [{"measurement": "IC50, ADP-Stimulated Aggregation", "setting": "[6]", "result": 4100, "unit": "nM"}]}, {"binder": "CNPRGDXXC (N-terminal acetyl; O-Me-Tyr at 7; Nle at 8; C-terminal amide, also called 11V)", "note": "[Ac-CNPRGD(Y-OMe)(Nle)C-NH2]", "values": [{"measurement": "IC50", "setting": "Vitronectin receptor [1]", "result": 108, "unit": "nM"}, {"measurement": "IC50", "setting": "[2]", "result": 15.2, "unit": "nM"}, {"measurement": "IC50", "setting": "[3]", "result": 18.6, "unit": "nM"}]}, {"binder": "RXGHRGDXRCR (am-Pmp (Pmc) at 2; TyrMe at 8)", "note": "[R(am-Pmp)GHRGD(TyrMe)RCR]", "values": [{"measurement": "IC50, ADP-Stimulated Aggregation", "setting": "[6]", "result": 450, "unit": "nM"}, {"measurement": "IC50", "setting": "[5]", "result": 18, "unit": "nM"}]}, {"binder": "RXGHRGDXRCR (Pmc at 2; Phg at 8)", "note": "[R(Pmc)GHRGD(Phg)RCR]", "values": [{"measurement": "IC50", "setting": "[5]", "result": 23, "unit": "nM"}, {"measurement": "IC50", "setting": "Vitronectin receptor [4]", "result": 790, "unit": "nM"}]}, {"binder": "RXGHRGDFRCR (Pmc at 2)", "note": "[R(Pmc)GHRGDFRCR]", "values": [{"measurement": "IC50", "setting": "[5]", "result": 43, "unit": "nM"}]}, {"binder": "B1", "values": [{"measurement": "IC50, ADP-Stimulated Aggregation", "setting": "[6]", "result": 170, "unit": "nM"}, {"measurement": "IC50 (µM) Human Platelet Aggregation", "setting": "[7]", "result": 0.17, "unit": "µM"}]}, {"binder": "RXGHRGDXRCR (Pmc at 2; p-iodo-Phe at 8, also called 7B)", "note": "[R(Pmc)GHRGD(p-I-F)RCR]", "values": [{"measurement": "IC50", "setting": "[3]", "result": 11.8, "unit": "nM"}]}, {"binder": "RXGHRGDXRCR (not fully specified; Pmc at 2; O-Me-Tyr at 8, also called R(Pmc)GHRGD(Y-OMe)RCR; 5O)", "note": "[R(Pmc)GHRGD(O-Me-Tyr)RCR]", "values": [{"measurement": "IC50, ADP-Stimulated Aggregation", "setting": "[6]", "result": 830, "unit": "nM"}, {"measurement": "IC50 (µM) Human Platelet Aggregation", "setting": "[7]", "result": 0.56, "unit": "µM"}, {"measurement": "IC50", "setting": "[3]", "result": 15.7, "unit": "nM"}]}, {"binder": "GXGRGDSPCA (Pen at 2, cyclic)", "note": "[G(Pen)GRGDSPCA]", "values": [{"measurement": "IC50", "setting": "[5]", "result": 290, "unit": "nM"}, {"measurement": "IC50", "setting": "Vitronectin receptor [4]", "result": 150, "unit": "nM"}]}, {"binder": "RXGHRGDXRCR (Pmc at 2; O-n-hexyl-Tyr at 8)", "note": "[R(Pmc)GHRGD(O-n-hexyl-Tyr)RCR]", "values": [{"measurement": "IC50, ADP-Stimulated Aggregation", "setting": "[6]", "result": 960, "unit": "nM"}]}, {"binder": "RXGHRGDXRCR (Pmc at 2; p-nitro-Phe at 8, also called 7T; R(Pmc)GHRGD(p-NO2-F)RCR)", "note": "[R(Pmc)GHRGD(p-nitro-Phe)RCR]", "values": [{"measurement": "IC50, ADP-Stimulated Aggregation", "setting": "[6]", "result": 380, "unit": "nM"}, {"measurement": "IC50 (µM) Human Platelet Aggregation", "setting": "[7]", "result": 0.38, "unit": "µM"}, {"measurement": "IC50", "setting": "[5]", "result": 23, "unit": "nM"}]}, {"binder": "B2", "values": [{"measurement": "IC50", "setting": "Vitronectin receptor [1]", "result": 63.5, "unit": "nM"}, {"measurement": "IC50", "setting": "[2]", "result": 44.5, "unit": "nM"}, {"measurement": "IC50", "setting": "[3]", "result": 9.9, "unit": "nM"}]}, {"binder": "RXGHRGDXRCR (Pen at 2; 1-Nal at 8)", "note": "[R(Pen)GHRGD(1-Nal)RCR]", "values": [{"measurement": "IC50, ADP-Stimulated Aggregation", "setting": "[6]", "result": 29000, "unit": "nM"}]}, {"binder": "RXGHRGDXRCR (D-Pen at 2; p-iodo-Phe at 8)", "note": "[R(dPen)GHRGD(p-iodo-Phe)RCR]", "values": [{"measurement": "IC50, ADP-Stimulated Aggregation", "setting": "[6]", "result": 780, "unit": "nM"}, {"measurement": "IC50", "setting": "[5]", "result": 23, "unit": "nM"}]}, {"binder": "CNPRGDXXC (N-terminal acetyl; O-Me-Tyr at 7; Cit at 8; C-terminal amide, also called 11S)", "note": "[Ac-CNPRGD(Y-OMe)(Cit)C-NH2]", "values": [{"measurement": "IC50", "setting": "Vitronectin receptor [1]", "result": 891, "unit": "nM"}, {"measurement": "IC50", "setting": "[2]", "result": 102, "unit": "nM"}, {"measurement": "IC50", "setting": "[3]", "result": 27.1, "unit": "nM"}]}, {"binder": "B3", "values": [{"measurement": "IC50", "setting": "Fibronectin receptor", "result": 640, "unit": "nM"}]}, {"binder": "GRGDSP (also called prototype linear peptide)", "values": [{"measurement": "IC50", "setting": "Fibronectin receptor", "result": 32, "unit": "nM"}]}, {"binder": "CNPRGDXXC (N-terminal acetyl; O-Me-Tyr at 7; D-Arg at 8; C-terminal amide, also called 11L)", "note": "[Ac-CNPRGD(Y-OMe)(dR)C-NH2]", "values": [{"measurement": "IC50 (µM) Human Platelet Aggregation", "setting": "[7]", "result": 7.3, "unit": "µM"}, {"measurement": "IC50", "setting": "Vitronectin receptor [1]", "result": 1820, "unit": "nM"}, {"measurement": "IC50", "setting": "[2]", "result": 932, "unit": "nM"}, {"measurement": "IC50", "setting": "[3]", "result": 640, "unit": "nM"}]}, {"binder": "RXGHRGDXRCR (Pmc at 2; 3,5-diiodo-Tyr at 8)", "note": "[R(Pmc)GHRGD(3,5-diiodo-Tyr)RCR]", "values": [{"measurement": "IC50, ADP-Stimulated Aggregation", "setting": "[6]", "result": 1100, "unit": "nM"}, {"measurement": "IC50", "setting": "[5]", "result": 13, "unit": "nM"}]}, {"binder": "RXGHRGDXRCR (Pmc at 2; O-n-butyl-Tyr at 8)", "note": "[R(Pmc)GHRGD(O-n-butyl-Tyr)RCR]", "values": [{"measurement": "IC50, ADP-Stimulated Aggregation", "setting": "[6]", "result": 350, "unit": "nM"}, {"measurement": "IC50", "setting": "[5]", "result": 28, "unit": "nM"}, {"measurement": "IC50", "setting": "Vitronectin receptor [4]", "result": 2200, "unit": "nM"}]}]}
